In patent US20250090629A1, “ALLEVIATING DRUG NEPHROTOXICITY” (The Trustees of Indiana University, priority 2021, published 2025):

Tested on: uninephrectomy chronic kidney disease model in Munich Wister Fromter rats
Test: Gentamicin induced nephrotoxicity in uninephrectomy chronic kidney disease rat model, with or without RAP
Details: for Serum Cr: daily gentamicin 100 mg/kg intraperitoneal without RAP
Description: Rats with a Chronic Kidney Disease (CKD) background were given either saline or 40 mg/kg RAP. […] Serum creatinine, an indicator of renal function, was measured in both rat populations at day 0, 3, 4, 5, and 6.

gentamicin [reference compound]
Serum creatinine (indicator of renal function), change over time (CKD rats, saline vehicle plus gentamicin 100 mg/kg intraperitoneal daily for five days, day 0, 3, 4, 5, 6, FIG. 1): increase in serum creatinine | Serum Cr (day 5): 3.1 ± 0.4 mg/dL | Serum Cr (day 6): 5.4 ± 0.8 mg/dL | 24-hour creatinine clearance (gentamicin without RAP, CKD pretreatment baseline 0.91=0.22 ml/min): 0.09 ± 0.07 mL/min
